Data published in patent US20150133434A1, “Compositions and Methods for Reactivating Latent Immunodeficiency Virus” (priority 2012, published 2015).

Tested on: latent HIV-1 in Bcl-2-transduced resting CD4+ T cells
Assay type: cell-based
Conditions: 24-72 h, average of two donors

CCNC(=O)C[C@@H]1N=C(c2ccc(Cl)cc2)c2cc(OC)ccc2-n2c(C)nnc21 [I-Bet, (S)-2-(6-(4-chlorophenyl)-8-methoxy-1-methyl-4H-benzo[f][1,2,4]triazolo[4,3-a][1,4]diazepin-4-yl)-N-ethylacetamide] was tested, and the “reactivation of latent HIV-1 relative to costimulation with αCD3 and αCD28 antibodies” value was “same activation”.
